# Apparent affinities of Ab-95 variants for a coronavirus HR2 peptide

Target: peptide PDVDLGDISGINAS, taken from heptad repeat 2 (HR2) of SARS-CoV-2 spike.

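The parent was found by panning a naive human phage display library on the peptide. Library AAYL52 holds single substitutions and randomly drawn double and triple substitutions in the CDRs. In AlphaSeq, yeast of one mating type display the scFv and yeast of the other type display the target. Binding brings cells together so that they mate, and sequencing counts the barcode pairs among the diploids. Read counts were normalised to the haploid input and turned into Kd by a linear fit to BCL2-family pairs of known affinity, for each replicate. There are three technical replicates.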

Parent: Ab-95, a human scFv built as VH, a (GGGGS)3 linker, VL. Only the CDRs of the light chain vary.
VH: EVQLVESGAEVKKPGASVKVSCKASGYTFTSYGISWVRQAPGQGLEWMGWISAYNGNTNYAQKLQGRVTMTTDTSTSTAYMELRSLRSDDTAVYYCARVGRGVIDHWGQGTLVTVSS
VL: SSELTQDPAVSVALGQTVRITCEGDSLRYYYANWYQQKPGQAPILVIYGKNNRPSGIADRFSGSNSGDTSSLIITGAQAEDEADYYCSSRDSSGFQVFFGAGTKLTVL

Variants are written as CDR1, CDR2 and CDR3 of the light chain (limits as in the source). Parent: EGDSLRYYYAN, GKNNRPS, SSRDSSGFQVF.
Scale: log10 of Kd in nM, estimated from mating counts; low values are strong binders.
An entry "ND" has no value in the source: the pair was not observed among the diploids in that replicate. This suggests poor binding but is not conclusive.
Three control strains display no target. For library AAYL52, 28% of the pairings with them gave a signal, with a median of 3.91 and one signal in twenty below 2.90, so weak values seen in few replicates may be background. Also given: how often the same scFv was detected with the empty control strains, with their mean in brackets.

{"CDR-L1": "EGRSLRYYIAY", "CDR-L2": "GKNNRPS", "CDR-L3": "SSRDSSGFQVF", "log10 Kd, replicates": "4.69 ND ND", "signal with controls": "1/9 (4.26)"}
{"CDR-L1": "EGDSLRMYYAN", "CDR-L2": "GKNNRPS", "CDR-L3": "SSWDSSGIQVF", "log10 Kd, replicates": "2.78 2.55 3.16", "signal with controls": "4/9 (3.32)"}
{"CDR-L1": "EGDSLRYYYAN", "CDR-L2": "GKNNRPS", "CDR-L3": "SSRESSGFQVK", "log10 Kd, replicates": "4.70 ND 2.76", "signal with controls": "1/9 (2.32)"}
{"CDR-L1": "EKDSLRYYYAN", "CDR-L2": "GKNNRPS", "CDR-L3": "SARDSSAFQVF", "log10 Kd, replicates": "5.20 ND ND", "signal with controls": "1/9 (4.59)"}
{"CDR-L1": "WGDSLRYYYAQ", "CDR-L2": "GKNNRPS", "CDR-L3": "FSRDSSGFQVF", "log10 Kd, replicates": "ND ND ND", "signal with controls": "3/9 (4.01)"}
{"CDR-L1": "EGDELRYYHAN", "CDR-L2": "GKNNRPS", "CDR-L3": "SSRDSIGFQVF", "log10 Kd, replicates": "ND 5.80 ND", "signal with controls": "4/9 (4.50)"}
{"CDR-L1": "EGDSLRYIYAN", "CDR-L2": "GKNNKPS", "CDR-L3": "SSRDFSGFQVF", "log10 Kd, replicates": "3.00 3.28 3.58", "signal with controls": "0/9"}
{"CDR-L1": "EGDFLRYYYAN", "CDR-L2": "GKNLRWS", "CDR-L3": "SSRDSSGFQVF", "log10 Kd, replicates": "3.90 4.81 ND", "signal with controls": "5/9 (3.96)"}
{"CDR-L1": "EGDSLRYSYAN", "CDR-L2": "GKNNRPK", "CDR-L3": "YSRDSSGFQVF", "log10 Kd, replicates": "2.32 2.25 1.87", "signal with controls": "5/9 (4.35)"}
{"CDR-L1": "KGDSLRYYGAN", "CDR-L2": "GKNNRPS", "CDR-L3": "SSRVSSGFQVF", "log10 Kd, replicates": "1.83 1.64 1.48", "signal with controls": "0/9"}
{"CDR-L1": "EGDSLRYYYSN", "CDR-L2": "GKNNRPS", "CDR-L3": "SSQDSKGFQVF", "log10 Kd, replicates": "ND 5.66 ND", "signal with controls": "5/9 (3.85)"}
{"CDR-L1": "EGDSLRWYYRN", "CDR-L2": "VKNNRPS", "CDR-L3": "SSRDSSGFQVF", "log10 Kd, replicates": "2.83 4.73 4.03", "signal with controls": "8/9 (3.81)"}
{"CDR-L1": "EGDSLRYYSAN", "CDR-L2": "GKNNRES", "CDR-L3": "DSRDSSGFQVF", "log10 Kd, replicates": "ND ND ND", "signal with controls": "2/9 (3.69)"}
{"CDR-L1": "EGDSLRYYYAN", "CDR-L2": "GCFNRPS", "CDR-L3": "SSRDSSEFQVF", "log10 Kd, replicates": "4.57 ND 4.06", "signal with controls": "2/9 (4.27)"}
{"CDR-L1": "EGDSLRYYYAN", "CDR-L2": "GKNNRPS", "CDR-L3": "SSRDNSGFQVF", "log10 Kd, replicates": "2.54 2.19 1.93", "signal with controls": "3/9 (3.98)"}
{"CDR-L1": "EGDSLRYYYAN", "CDR-L2": "GKYNCPS", "CDR-L3": "VSRDSSGFQVF", "log10 Kd, replicates": "ND 5.21 ND", "signal with controls": "1/9 (3.73)"}
{"CDR-L1": "EGFSLRYYYAN", "CDR-L2": "GGNNRPS", "CDR-L3": "SSRDSSGFQVF", "log10 Kd, replicates": "2.76 2.41 2.66", "signal with controls": "0/9"}
{"CDR-L1": "SGDSLRYYRAN", "CDR-L2": "GKNNRPS", "CDR-L3": "SSWDSSGFQVF", "log10 Kd, replicates": "4.11 ND 3.41", "signal with controls": "1/9 (3.45)"}
{"CDR-L1": "EGDSLRYYYAN", "CDR-L2": "YKNNHPM", "CDR-L3": "SSRDSSGFQVF", "log10 Kd, replicates": "ND ND ND", "signal with controls": "1/9 (3.37)"}
{"CDR-L1": "VGDSLRYYYAI", "CDR-L2": "GKNNRPS", "CDR-L3": "SSYDSSGFQVF", "log10 Kd, replicates": "ND ND ND", "signal with controls": "0/9"}
{"CDR-L1": "EGDSLRYYYAN", "CDR-L2": "GKNNRPE", "CDR-L3": "PSRDESGFQVF", "log10 Kd, replicates": "4.41 1.99 2.45", "signal with controls": "5/9 (3.72)"}
{"CDR-L1": "EGDSLRYYYAN", "CDR-L2": "GKLNDPS", "CDR-L3": "SSRDSSPFQVF", "log10 Kd, replicates": "3.58 ND ND", "signal with controls": "1/9 (4.44)"}
{"CDR-L1": "EGDSLRYYYAN", "CDR-L2": "GKNMRFS", "CDR-L3": "SSPDSSGFQVF", "log10 Kd, replicates": "ND ND ND", "signal with controls": "1/9 (3.29)"}
{"CDR-L1": "EGDSLRYYYAN", "CDR-L2": "GKNNRQS", "CDR-L3": "SSRDSSFFQGF", "log10 Kd, replicates": "ND 5.25 3.65", "signal with controls": "2/9 (3.45)"}
{"CDR-L1": "EGDALRYYYAN", "CDR-L2": "GKNNTPS", "CDR-L3": "SSRDMSGFQVF", "log10 Kd, replicates": "3.68 4.79 4.35", "signal with controls": "1/9 (3.67)"}
{"CDR-L1": "EGDSLRYYYAN", "CDR-L2": "GNNYRPS", "CDR-L3": "SSRDSSPFQVF", "log10 Kd, replicates": "2.43 2.72 2.16", "signal with controls": "6/9 (4.19)"}
{"CDR-L1": "EGDSLRIYYAN", "CDR-L2": "GKNNRPS", "CDR-L3": "SSRDSSGVQAF", "log10 Kd, replicates": "ND 5.21 ND", "signal with controls": "1/9 (2.11)"}
{"CDR-L1": "EGDSGRYYYAN", "CDR-L2": "GKMNRPS", "CDR-L3": "SSRDSSLFQVF", "log10 Kd, replicates": "ND 3.71 4.25", "signal with controls": "1/9 (5.09)"}
{"CDR-L1": "NGDSLRYYYIN", "CDR-L2": "GKNNRPS", "CDR-L3": "SSRDSIGFQVF", "log10 Kd, replicates": "ND 4.27 2.92", "signal with controls": "2/9 (3.69)"}
{"CDR-L1": "ELDSLRTYYAN", "CDR-L2": "GKNNRPS", "CDR-L3": "SSRDSSGFQSF", "log10 Kd, replicates": "2.52 ND ND", "signal with controls": "1/9 (3.66)"}
{"CDR-L1": "EGGSLRYYYAN", "CDR-L2": "IKNSRPS", "CDR-L3": "SSRDSSGFQVF", "log10 Kd, replicates": "ND ND ND", "signal with controls": "3/9 (4.53)"}

2 of these entries, quoted again:

{"CDR-L1": "KGDSLRYYGAN", "CDR-L2": "GKNNRPS", "CDR-L3": "SSRVSSGFQVF", "log10 Kd, replicates": "1.83 1.64 1.48", "signal with controls": "0/9"}
{"CDR-L1": "NGDSLRYYYIN", "CDR-L2": "GKNNRPS", "CDR-L3": "SSRDSIGFQVF", "log10 Kd, replicates": "ND 4.27 2.92", "signal with controls": "2/9 (3.69)"}

Values reported by Engelhart et al. 2022, doi:10.1038/s41597-022-01779-4 (FLAb copy).